1 substance from patent publication US20250034239A1 can be followed below.

For the experiment, the target named is complement protein C5 (in human serum) (human) (UniProt P01031). Nature of the experiment: cell-based or functional assay.

Turning to “Eculizumab (Targetmol, T9915) (antibody)”, the IC50, alternative pathway hemolysis in human serum was found to be 50 nM; the IC50, classical pathway hemolysis in human serum came to 57 nM; the IC50, lectin pathway hemolysis in human serum amounted to 45 nM.
